Values quoted from earlier work, collected in PMC10035387 (Cancer Research Communications, 2022).

Details: cited from earlier work

FOLFIRINOX
Incidence of grade 3/4 neutropenia: 45.7%
